Where two headings read alike, the source gives them in different places.

The chains behind the UniProt entries cited, without tags or fusion partners.
UniProt P04150, whole entry: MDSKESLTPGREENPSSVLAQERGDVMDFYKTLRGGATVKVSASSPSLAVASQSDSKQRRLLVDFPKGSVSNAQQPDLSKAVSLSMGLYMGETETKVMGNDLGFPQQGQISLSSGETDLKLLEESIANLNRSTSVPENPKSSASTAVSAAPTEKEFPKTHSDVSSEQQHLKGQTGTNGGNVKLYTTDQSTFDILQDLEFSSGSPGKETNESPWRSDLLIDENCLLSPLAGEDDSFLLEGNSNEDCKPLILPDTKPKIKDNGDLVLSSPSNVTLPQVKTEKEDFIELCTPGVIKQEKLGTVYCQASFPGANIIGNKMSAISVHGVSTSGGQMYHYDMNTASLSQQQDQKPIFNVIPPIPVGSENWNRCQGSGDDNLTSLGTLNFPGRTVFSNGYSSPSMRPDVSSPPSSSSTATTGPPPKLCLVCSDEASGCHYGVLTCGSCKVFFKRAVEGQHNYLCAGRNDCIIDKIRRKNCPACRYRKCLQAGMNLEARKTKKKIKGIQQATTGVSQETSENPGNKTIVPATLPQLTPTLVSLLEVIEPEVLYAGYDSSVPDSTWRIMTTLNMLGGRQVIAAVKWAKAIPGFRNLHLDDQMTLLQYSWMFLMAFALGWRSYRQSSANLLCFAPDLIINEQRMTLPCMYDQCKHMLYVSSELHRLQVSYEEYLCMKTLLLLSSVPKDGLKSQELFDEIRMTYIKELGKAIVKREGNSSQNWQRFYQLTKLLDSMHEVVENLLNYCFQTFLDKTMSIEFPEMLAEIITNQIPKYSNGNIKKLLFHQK

The term EC50 denotes the concentration needed to bring the measured effect to its halfway point. As a reminder, the Ki is a measure of affinity in units of concentration, obtained from inhibition or displacement.

Assay [1] deals with AP-1 induced transcriptional activity. Put plainly: Cellular transrepressional assay (AP-1 luciferase reporter, PMA-activated A549 cell). Type of assay: cell-based. The settings on record: for EC50: read-out: AP-1 (EC50, nM) (measured in cellular transrepression assay). On the technique in general: Reporter assays use an easily measured gene product as a stand-in for the process of interest.

Assay [2] concerns the target human full-length glucocorticoid receptor (Homo sapiens (Human), UniProt P04150). Put plainly: Glucocorticoid Receptor Binding Assay (II), fluorescence polarization competitor kit. The settings on record: read-out: GR (Ki, nM) (measured in GR binding Assay II).
Setting [3] is: A549 cell, 10 ng/ml PMA, 7 hours.

As to `CC(C)(C(=O)NC(N)=O)[C@H]1c2ccccc2Oc2nc(-c3ccccc3)ccc21`, in assay [1] (setting [3]), the “AP-1 Max % inhibition (measured in cellular transrepression assay)” value (from here on “AP-1 Max % inhibition”) is listed as 29.97% and the EC50 worked out at 129 nM. Further, the Ki in assay [2] came to 1.74 nM.
`CC(C)(C(=O)NC(N)=O)[C@H]1c2ccccc2Oc2nc(-c3ccc(N4CCOCC4)nc3)ccc21`: in assay [1] (setting [3]), the “AP-1 Max % inhibition” value turned out to be 43.00% and the EC50 stood at 19.9 nM.
As to `CC(C)Oc1ccc(-c2ccc3c(n2)Oc2ccccc2[C@@H]3C(C)(C)C(=O)NC(N)=O)cc1F`, in assay [1] (setting [3]), the “AP-1 Max % inhibition” value amounted to 59.56% and the EC50 was determined as 29.1 nM. In assay [2], the Ki amounted to 0.84 nM.
`CC(C)C(=O)NC(=O)C(C)(C)[C@@H]1c2ccc(-c3ccc(C(=O)N4CCOCC4)cc3)nc2Oc2c(F)cccc21`: in assay [1], the “AP-1 Max % inhibition” value was 42.52%.
Turning to `CC(C)(C(=O)NC(N)=O)[C@@H]1c2ccc(-c3ccc(N4CCOCC4)nc3)nc2Oc2c(F)cccc21`, in assay [1] (setting [3]), the “AP-1 Max % inhibition” value was found to be 54.62% and the EC50 came out at 18.9 nM.
The like results for `CC(C)(C(=O)NC(=O)C1CCC1)[C@@H]1c2ccc(-c3ccc(C(=O)N4CCOCC4)cc3)nc2Oc2c(F)cccc21` were, in that order, 46.14% and 18.3 nM.
Regarding `CC(C)(C(=O)NC(=O)C1CC1)[C@@H]1c2ccc(-c3ccc(C(=O)N4CCOCC4)cc3)nc2Oc2c(F)cccc21`, the “AP-1 Max % inhibition” value in assay [1] (setting [3]) was determined as 53.92%.
For `CC(C)(C(=O)NC(N)=O)[C@H]1c2ccccc2Oc2nc(-c3ccc(-n4cnnn4)cc3)ccc21`, in assay [1] (setting [3]), the “AP-1 Max % inhibition” value is listed as 42.41% and the EC50 turned out to be 12.8 nM. Besides, in assay [2], the Ki turned out to be 1.71 nM.
With `CC(C)(C(=O)NC(N)=O)[C@@H]1c2ccc(-c3ccccc3)nc2Oc2c(F)cccc21`, in assay [1] (setting [3]), the “AP-1 Max % inhibition” value came out at 48.53% and the EC50 stood at 19.2 nM. Moreover, the Ki in assay [2] was found to be 0.92 nM.

Source of the values: patent US9593113B2, “Imide and acylurea derivatives as modulators of the glucocorticoid receptor” (BRISTOL-MYERS SQUIBB COMPANY, priority 2013, dated 2017).
